This is a sample that favours compounds with a hit; in the whole collection about 0.43% have one here.
MmCpn inh: Inhibitors of TCP-1 ring complex (TRiC) of Methanococcus maripaludis (MmCpn): qHTS. 330,000 compounds, 0.031% hits. Potency, µM (series often up to 76.9 µM), for the others: top-dose activity, negative = inhibition, hits mostly inhibitors. purified Mm-Cpn ATPase, ADP Transcreener TR-FRET; note: potency is the fitted concentration of half-maximal effect; % is set by controls: 0 for no effect and ±100 for the full control effect; nearly all actives have a fitted effect of over 80% in size
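ATPase turnover read by TR-FRET ADP competition (Eu cryptate antibody/ADP-d2, 665/590 nm): 10uM ATP final, 25nM Mm-CPN final, 30 min 37degC after 10-min compound preincubation, pH 7.4 Tris/KCl/MgCl2/DTT buffer.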
Rango complex inh: qHTS Assay for Inhibitors of Rango (Ran-regulated importin-beta cargo) - Importin beta complex formation; Importin subunit beta-1 (Homo sapiens), Q14974; Rango CFP/YFP FRET sensor + importin beta, 45 min; Potency, µM (doses to about 92.2 µM), for inactives: top-dose inhibition of complex formation; 340,000 compounds, 0.031% hits; calls by dose curve;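 note: potency is the fitted concentration of half-maximal effect; 0% = DMSO wells and 100% = buffer wells lacking importin beta; nearly all actives have a fitted effect of over 15% in size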
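FRET biosensor Rango (snurportin 1 IBB between N-terminal EYFP and C-terminal Cerulean), 50 nM in PBS/1 mM DTT/0.02% Tween-20/0.1% BSA, preincubated 5 min RT with compound; 0.125 microM importin beta added, 45 min RT, CFP/YFP FRET ratio read.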
Rango dissoc inh: qHTS Assay for Inhibitors of RanGTP induced Rango (Ran-regulated importin-beta cargo) - Importin beta complex dissociation; 340,000 compounds, 0.071% hits; Snurportin-1 (Homo sapiens) + GTP-binding nuclear protein Ran (Homo sapiens) + Importin …; Potency, µM (top dose mostly 46.1 µM), for the others: at the top dose activity change, negative = inhibition; Biochemical FRET Rango-importin beta, RanGTP-induced dissociation; AID 540253, 2011; calls by dose curve; note: potency is the fitted concentration of half-maximal effect; % of control where 0% means no effect; nearly all actives have a fitted effect of over 45% in size
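Recombinant Rango FRET biosensor (EYFP–snurportin 1 IBB–cerulean CFP10) at 0.1 uM premixed with 0.25 uM importin beta in PBS, 1 mM DTT, 0.02% Tween-20, 0.1% BSA. Compound added 5 min; RanGTP-RCC1 (0.6 uM Ran, 2 mM GTP, 0.2 uM RCC1) then triggers release, read at 45 min.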
B2AR arrestin: qHTS assay of beta-arrestin-biased ligands of beta2-adrenergic receptor | Beta-2 adrenergic receptor (Homo sapiens), P07550 | 330,000 compounds, 0.02% hits | Potency, µM (series often up to 46.1 µM), for inactives: at the highest dose activation, usual class: activators | beta-arrestin recruitment to beta2AR, cell-based reporter | AID 492947, 2010;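 note: potency is the fitted concentration of half-maximal effect; 0% = DMSO controls and full agonism = EC100 isoproterenol or metaproterenol; nearly all actives have a fitted effect of over 65% in size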
CCT chaperon mod: High-Throughput Screening for Modulators of Cytosolic Chaperonin Activity | purified chaperonin ATPase assay, HTRF ADP detection, 30 min | activity change, % (concentration not given with the values), hits read low | 360,000 compounds, 0.3% hits; in the data active = activity change below about -30%; note: % is set by controls: 0 for no effect and ±100 for the full control effect
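TRiC (40 or 20 nM final, by batch activity) in 30 mM Tris pH 7.4, 100 mM KCl, 5 mM MgCl2, 1 mM DTT was treated with compound at 76 uM single dose, then 10 uM ATP, 30 min at 37 °C. ADP was read by HTRF Transcreener.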
The depositor's hits bear a star; ! = not active in a repeat. Unless noted, calls come from the whole dose curve; as a rule, active = well fitted curve in the direction sought with a large enough effect; inconclusive = small, poorly fitted or top-dose-only effect, or another doubt; inactive = no such curve, though single readings can be large; an effect the other way counts as inactive or inconclusive.

Chains of the proteins cited; added tags and fusions are not shown.
Importin subunit beta-1 (Homo sapiens), Q14974, UniProt Q14974, whole entry, looked up: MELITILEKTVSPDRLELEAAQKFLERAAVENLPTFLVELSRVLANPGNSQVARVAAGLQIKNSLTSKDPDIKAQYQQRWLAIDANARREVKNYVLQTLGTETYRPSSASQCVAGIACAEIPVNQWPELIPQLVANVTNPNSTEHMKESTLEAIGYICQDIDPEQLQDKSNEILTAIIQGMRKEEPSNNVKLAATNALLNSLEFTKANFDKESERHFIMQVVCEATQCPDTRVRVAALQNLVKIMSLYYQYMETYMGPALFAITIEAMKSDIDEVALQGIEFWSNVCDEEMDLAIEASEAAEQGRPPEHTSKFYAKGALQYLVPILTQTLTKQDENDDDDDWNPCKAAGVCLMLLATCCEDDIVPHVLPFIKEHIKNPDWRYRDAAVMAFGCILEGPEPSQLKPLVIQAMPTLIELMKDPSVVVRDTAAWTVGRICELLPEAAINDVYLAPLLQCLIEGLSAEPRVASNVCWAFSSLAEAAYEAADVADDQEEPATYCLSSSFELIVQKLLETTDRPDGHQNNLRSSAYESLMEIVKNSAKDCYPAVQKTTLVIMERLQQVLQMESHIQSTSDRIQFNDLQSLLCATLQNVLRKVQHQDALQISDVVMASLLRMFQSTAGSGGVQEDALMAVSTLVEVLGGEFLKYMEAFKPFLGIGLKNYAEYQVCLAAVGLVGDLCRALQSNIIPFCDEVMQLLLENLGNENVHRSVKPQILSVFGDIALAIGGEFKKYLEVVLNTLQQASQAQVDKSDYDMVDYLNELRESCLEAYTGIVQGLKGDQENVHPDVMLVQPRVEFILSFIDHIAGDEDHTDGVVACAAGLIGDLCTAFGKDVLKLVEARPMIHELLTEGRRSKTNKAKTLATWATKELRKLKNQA

What do the screens show for `NC(=S)NN=C1c2ccccc2-c2c(F)c(F)c(F)c(F)c21`?
Rango complex inh: 73µM*; Rango dissoc inh: 1%; CCT chaperon mod: 1

What do the screens show for `N#Cc1cccc2c1-c1ccccc1/C2=N/NC(N)=S`?
MmCpn inh: -1%; Rango complex inh: 1%; Rango dissoc inh: -8%; B2AR arrestin: inconclusive; CCT chaperon mod: -1

Results for CC1CCCCN1CCNC(=O)C1CCN(S(=O)(=O)c2cccc3nsnc23)CC1 (centres undefined) ?
MmCpn inh: 2%; Rango complex inh: -1%; Rango dissoc inh: -2%; B2AR arrestin: 0%; CCT chaperon mod: -34*

What do the screens show for `CC1CCCCN1CCNC(=O)C1CCCN(S(=O)(=O)c2cccc3nsnc23)C1` (centres undefined)?
MmCpn inh: 2%; Rango complex inh: 0%; Rango dissoc inh: 8%; B2AR arrestin: 0%; CCT chaperon mod: 1

How did Cc1cc(C)n(-c2ccc(C(=O)Nc3ccc(C)c(S(=O)(=O)N4CCOCC4)c3)cc2)n1 do in these assays?
MmCpn inh: -1%; Rango complex inh: -1%; Rango dissoc inh: -1%; B2AR arrestin: 0%; CCT chaperon mod: 0

Results for CC(=O)NC(CC(=O)Oc1ccc(C)cc1Br)c1ccccc1 (centres undefined) ?
MmCpn inh: -2%; Rango complex inh: 0%; Rango dissoc inh: 0%; B2AR arrestin: 0%; CCT chaperon mod: 1

How did O=S(=O)(NCc1cccnc1)c1ccc(Cl)c(Cl)c1Cl do in these assays?
MmCpn inh: 0%; Rango complex inh: 10%; Rango dissoc inh: 20%; B2AR arrestin: 0%; CCT chaperon mod: -48*

How did O=S(=O)(NCc1cccnc1)c1ccc(Cl)c2ccccc12 do in these assays?
MmCpn inh: 0%; Rango complex inh: 1%; Rango dissoc inh: 15%; B2AR arrestin: 0%; CCT chaperon mod: -1

How did C/C=C/c1ccc(OCCCCN2CCN(CC)CC2)c(OC)c1 do in these assays?
MmCpn inh: 0%; Rango complex inh: 1%; Rango dissoc inh: -9%; B2AR arrestin: 0%; CCT chaperon mod: -58*

Results for COc1ccc(CN(C2CC2)S(=O)(=O)c2ccccc2Br)cc1 ?
MmCpn inh: 2%; Rango complex inh: 7%; Rango dissoc inh: 3%; B2AR arrestin: 0%; CCT chaperon mod: 0

The final three records of the part above are carried over, then new ones follow:
How did O=S(=O)(NCc1cccnc1)c1ccc(Cl)c2ccccc12 do in these assays?
MmCpn inh: 0%; Rango complex inh: 1%; Rango dissoc inh: 15%; B2AR arrestin: 0%; CCT chaperon mod: -1

How did C/C=C/c1ccc(OCCCCN2CCN(CC)CC2)c(OC)c1 do in these assays?
MmCpn inh: 0%; Rango complex inh: 1%; Rango dissoc inh: -9%; B2AR arrestin: 0%; CCT chaperon mod: -58*

Results for COc1ccc(CN(C2CC2)S(=O)(=O)c2ccccc2Br)cc1 ?
MmCpn inh: 2%; Rango complex inh: 7%; Rango dissoc inh: 3%; B2AR arrestin: 0%; CCT chaperon mod: 0

What do the screens show for `Cc1ccc(C)c(S(=O)(=O)NCCN2CCOCC2)c1`?
MmCpn inh: -1%; Rango complex inh: 3%; Rango dissoc inh: 1%; B2AR arrestin: 0%; CCT chaperon mod: -31*

How did Cc1ccc(C)c(S(=O)(=O)NCCCN2CCOCC2)c1 do in these assays?
MmCpn inh: 1%; Rango complex inh: 7%; Rango dissoc inh: -15%; B2AR arrestin: 0%; CCT chaperon mod: -1

Results for COCCNS(=O)(=O)c1ccc(-c2ccc(Cl)cc2)cc1 ?
MmCpn inh: -3%; Rango complex inh: -2%; Rango dissoc inh: 6%; B2AR arrestin: 1%; CCT chaperon mod: -40*

What do the screens show for `COCCNS(=O)(=O)c1ccc(-c2ccc(S(=O)(=O)NCCOC)cc2)cc1`?
MmCpn inh: -22%; Rango complex inh: -2%; Rango dissoc inh: 2%; B2AR arrestin: 3%; CCT chaperon mod: -2

What do the screens show for `NC(=S)N/N=C/c1ccccc1OC(=O)c1cc2ccccc2oc1=O`?
MmCpn inh: 2%; Rango complex inh: -4%; Rango dissoc inh: -6%; B2AR arrestin: 13µM*; CCT chaperon mod: -2

Results for NC(=O)N/N=C/c1ccccc1OC(=O)c1cc2ccccc2oc1=O ?
MmCpn inh: 2%; Rango complex inh: 0%; Rango dissoc inh: 6%; B2AR arrestin: 0%; CCT chaperon mod: -5

How did CC(C)CN1CCNC(=O)C1CC(=O)NCCc1ccc(C(F)(F)F)cc1 (centres undefined) do in these assays?
MmCpn inh: 32µM*; Rango complex inh: 0%; Rango dissoc inh: -12%; B2AR arrestin: 0%; CCT chaperon mod: -1

How did O=C(Nc1ccc(Nc2ccccc2)cc1)c1cc([N+](=O)[O-])ccc1Cl do in these assays?
MmCpn inh: -1%; Rango complex inh: 3%; Rango dissoc inh: 24%; B2AR arrestin: 14%; CCT chaperon mod: -4

How did CC(=O)Nc1ccc(NC(=O)c2ccccc2Sc2ccc([N+](=O)[O-])cc2Cl)cc1 do in these assays?
MmCpn inh: 1%; Rango complex inh: 0%; Rango dissoc inh: -3%; B2AR arrestin: -1%; CCT chaperon mod: -34*

Results for O=Cc1c[nH]c2cccc(OCc3ccccc3)c12 ?
MmCpn inh: -1%; Rango complex inh: 58µM*; Rango dissoc inh: 6%; B2AR arrestin: 0%; CCT chaperon mod: -1

What do the screens show for `CCOC(=O)C1(Cc2ccc(OC)cc2)CCN(C(=O)CN2CCCCC2=O)CC1`?
MmCpn inh: 1%; Rango complex inh: 3%; Rango dissoc inh: -4%; B2AR arrestin: -1%; CCT chaperon mod: -4

How did Cc1ccc(C(=O)CSC2=C(C#N)C(c3ccco3)C3=C(CC(C)(C)CC3=O)N2)cc1 (centres undefined) do in these assays?
MmCpn inh: -3%; Rango complex inh: inconclusive; Rango dissoc inh: inconclusive; B2AR arrestin: 0%; CCT chaperon mod: -47*

What do the screens show for `CC1(C)CC(=O)C2=C(C1)NC(SCC(=O)Nc1ccccc1)=C(C#N)C2c1ccco1` (centres undefined)?
MmCpn inh: 0%; Rango complex inh: inconclusive; Rango dissoc inh: 2%; B2AR arrestin: 0%; CCT chaperon mod: 0

What do the screens show for `N#Cc1cc([N+](=O)[O-])ccc1NC(=O)CSc1n[nH]c(=O)[nH]c1=O`?
MmCpn inh: -1%; Rango complex inh: 2%; Rango dissoc inh: -2%; B2AR arrestin: 0%; CCT chaperon mod: 0

How did COc1ccc(C(=O)Nc2c3c(nn2-c2ccc(Cl)cc2)CS(=O)(=O)C3)cc1 do in these assays?
MmCpn inh: 1%; Rango complex inh: -1%; Rango dissoc inh: 1%; B2AR arrestin: 0%; CCT chaperon mod: 0

What do the screens show for `Cc1ccc2c(c1)c1c3n2CCNC3CCC1` (centres undefined)?
MmCpn inh: -4%; Rango complex inh: -2%; Rango dissoc inh: 2%; B2AR arrestin: -1%; CCT chaperon mod: -61*!

Results for Cc1ccc2c(c1)c1c3n2CCN(C=O)C3CCC1 (centres undefined) ?
MmCpn inh: -3%; Rango complex inh: 0%; Rango dissoc inh: -1%; B2AR arrestin: 0%; CCT chaperon mod: 2

Bioassay records from PubChem.
